# Data published in ChEMBL document CHEMBL1800061 (J Med Chem, 2010).
# Protein sequences, listed by entry. Tags and fused reporters are not part of them.
# UniProt P50750, whole entry: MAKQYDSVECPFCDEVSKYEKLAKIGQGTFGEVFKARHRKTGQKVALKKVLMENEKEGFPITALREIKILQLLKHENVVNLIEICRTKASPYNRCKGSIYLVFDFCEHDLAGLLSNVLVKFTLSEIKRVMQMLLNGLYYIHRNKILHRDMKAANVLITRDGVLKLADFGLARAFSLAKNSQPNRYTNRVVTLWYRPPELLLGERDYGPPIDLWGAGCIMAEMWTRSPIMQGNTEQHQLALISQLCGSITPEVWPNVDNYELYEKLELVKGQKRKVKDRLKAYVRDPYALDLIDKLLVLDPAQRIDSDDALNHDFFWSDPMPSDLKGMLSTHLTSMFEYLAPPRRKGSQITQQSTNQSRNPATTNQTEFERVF
# Molecular target: CDK9/cyclin T1 (Homo sapiens, UniProt P50750)
# Test: Inhibition of CDK9/cyclinT assessed as amount of ATP released by luciferase activity based PKLight assay
# Format: protein-complex assay
smiles,measurement,value
CC(C)c1cnn2c(NCc3ccccc3)cc(N[C@@H](CO)[C@H](O)CO)nc12,IC50,90 nM
